By UniProt entry, the sequences of proteins in these tests, tags left out. Where a name states a change or a piece, a line headed by the entry shows the natural chain unless it says otherwise.
UniProt P41144: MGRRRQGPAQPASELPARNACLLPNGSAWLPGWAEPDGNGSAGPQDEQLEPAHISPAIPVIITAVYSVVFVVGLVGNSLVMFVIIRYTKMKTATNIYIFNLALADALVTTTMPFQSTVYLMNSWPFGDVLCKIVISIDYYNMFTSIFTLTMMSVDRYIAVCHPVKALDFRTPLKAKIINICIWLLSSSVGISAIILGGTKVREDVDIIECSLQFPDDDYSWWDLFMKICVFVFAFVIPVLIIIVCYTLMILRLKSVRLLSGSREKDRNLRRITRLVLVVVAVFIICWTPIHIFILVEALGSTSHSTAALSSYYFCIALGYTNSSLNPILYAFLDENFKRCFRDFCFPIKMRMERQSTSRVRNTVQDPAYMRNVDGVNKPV

These molecules were tested against Kappa-type opioid receptor (Cavia porcellus) (UniProt P41144). Details: Brain, Membrane, 1 uM.
An inhibition of 2% was found for `c1ccc(CN2CCN[C@H]3[C@H]2CCC[C@@H]3N2CCCC2)cc1` (mixture of isomers) in this work. An inhibition of 0% was found for `N[C@H]1CCC[C@@H]2[C@@H]1NC(=O)C(=O)N2Cc1ccccc1` (racemic) in this work. An inhibition of 0% was found for `O=C1N[C@@H]2[C@@H](NCc3ccccc3)CCC[C@H]2N(Cc2ccccc2)C1=O` (mixture of isomers) in this work. An inhibition of 3% was found for `O=C1N[C@H]2[C@@H](CCC[C@@H]2N2CCCC2)N(Cc2ccccc2)C1=O` (relative stereo) in this work.

From ChEMBL document CHEMBL3297660, “Combination of cyclohexane and piperazine based κ-opioid receptor agonists: Synthesis and pharmacological evaluation of trans,trans-configured perhydroquinoxalines” (Bioorg Med Chem, 2014)
